The results in this text go back to patent US10023592B2, “Bromodomain inhibitors” (Celgene Quanticel Research, Inc., priority 2013, dated 2018).

For the test, the target named is BRD4(BD1) (Homo sapiens (Human), UniProt O60885). Put plainly: In vitro enzyme inhibition assay (BRD4 AlphaScreen). The format is binding. Particulars: read-out: BRD4 IC50. In general terms: Bead proximity is the source of the signal in Alpha formats.

For the compound `Cc1cc(-c2cc(OCc3cccc(Cl)c3Cl)cc(S(C)(=O)=O)c2)cn(C)c1=O`, the IC50 (in general, the concentration at which inhibition is half-maximal) was 500 to 5000 nM.
